The source of these data is article PMC12415777, “Dose-dependent modulation of hepatic cytochrome P450 enzymes by tenvermectin: implications for medication safety and combination therapy” (Frontiers in Veterinary Science, 2025).

For this experiment, the target named is T1, CYP2C6 (Rattus norvegicus, UniProt P05178).
T1 construct: native enzyme in rat liver microsomes; diclofenac 4'-hydroxylation read-out
T1 sequence (P05178 1-490): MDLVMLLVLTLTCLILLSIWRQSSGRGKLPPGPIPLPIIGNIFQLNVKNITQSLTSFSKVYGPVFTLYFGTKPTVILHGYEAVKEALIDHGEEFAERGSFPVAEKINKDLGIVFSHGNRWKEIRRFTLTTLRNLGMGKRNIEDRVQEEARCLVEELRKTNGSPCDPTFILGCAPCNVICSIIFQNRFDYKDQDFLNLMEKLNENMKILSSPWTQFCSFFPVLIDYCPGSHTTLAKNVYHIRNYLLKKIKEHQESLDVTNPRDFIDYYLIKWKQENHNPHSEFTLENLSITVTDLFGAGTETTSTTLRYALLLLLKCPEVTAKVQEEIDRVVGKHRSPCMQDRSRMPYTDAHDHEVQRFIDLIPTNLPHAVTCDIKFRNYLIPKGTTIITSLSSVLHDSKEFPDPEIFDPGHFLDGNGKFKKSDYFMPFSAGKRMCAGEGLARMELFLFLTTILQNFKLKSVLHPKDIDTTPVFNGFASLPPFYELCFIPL
Briefly: Michaelis-Menten fit in rat liver microsomes, HPLC-MS/MS of […]'-hydroxydiclofenac. In kind it is biochemical. The note with it: NADPH regeneration system, 0.05 M Tris-HCl pH 7.4, 10 min.

On to `O=C(O)Cc1ccccc1Nc1c(Cl)cccc1Cl` [DF], for which the Km result was “(C) diclofenac (DF) (CYP2C6)”.
